Columns and labels:
c-Myc/Max/Ebox DNA = c-Myc/Max/Ebox DNA (Homo sapiens, UniProt P01106); assay: c-Myc/Max/Ebox DNA AlphaScreen Assay; type: binding; conditions: read-out: Myc/Max/DNA Activity; Table 2, compounds of FIG. 1; calculated IC50 class
[1] = tested on: human small lung cancer cell line H2171; assay: Cell Viability Assay (ATPlite); type: cell-based; conditions: read-out: H2171 Activity, Table 2, compounds of FIG. 1, H2171 cells, three days, calculated IC50 class
Experimental: Compounds of the invention were assayed for cell viability using the human small lung cancer cell line H2171 as described in the following protocol. Cells were counted and adjusted to 20,000 cells/mL. Using a Biotek EL406, 50 μL of cells in media were distributed into 384 well white plates from Thermo. Immediately after plating, compound in DMSO was distributed to plates. Compounds were added to plates using a 50 nL 384 well pin transfer manifold on a Janus workstation. Stocks were arrayed in 10 point dose response in DMSO stock in 384 well Greiner compound plates. After the addition of compounds, plates were incubated for three days in a 37° C. incubator. Cell viability was read out using ATPlite from Perkin Elmer. Lyophilized powder was resuspended in lysis buffer and diluted 1:2 with deionized water. 25 μL of this solution was added to each well using the Biotek liquid handler. Plates were incubated for 15 minutes at room temperature before signal was read on an Envision Plate Reader. The data from this assay are summarized in Tables 2 and 3 below (H2171 activity).

Amino acid sequences for entries named in this document (tags omitted).
UniProt P01106, whole entry: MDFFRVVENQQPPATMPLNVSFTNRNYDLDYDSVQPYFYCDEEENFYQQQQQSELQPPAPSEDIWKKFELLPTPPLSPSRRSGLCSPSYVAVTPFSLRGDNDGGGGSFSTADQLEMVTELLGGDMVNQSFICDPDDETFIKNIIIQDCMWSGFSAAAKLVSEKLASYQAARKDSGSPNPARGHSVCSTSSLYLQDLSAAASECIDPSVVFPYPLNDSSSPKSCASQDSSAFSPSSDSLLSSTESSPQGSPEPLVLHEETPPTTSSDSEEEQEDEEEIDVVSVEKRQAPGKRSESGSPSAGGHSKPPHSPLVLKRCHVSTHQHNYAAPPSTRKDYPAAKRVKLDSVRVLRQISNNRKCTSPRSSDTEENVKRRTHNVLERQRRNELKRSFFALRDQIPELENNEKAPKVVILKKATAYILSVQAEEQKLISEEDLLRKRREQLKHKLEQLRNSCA

Structure (SMILES) | IC50 (c-Myc/Max/Ebox DNA) [nM] | IC50 [1] [nM]
O=C(CCNC12CC(C1)C2)Nc1sc2c(c1-c1nc3ccccc3s1)CCNC2 | 1000 to 10000 | 300 to 1000
CNc1ncc2cc(-c3ccc4nc(-c5c(NC(=O)CCNCCOC)sc6c5CCNC6)sc4c3)ccc2n1 | > 10000 | < 300

From patent US10787444B2, “Compounds for the modulation of myc activity” (Syros Pharmaceuticals, Inc., priority 2015, dated 2020)
